# Reference: patent publication US11300510B2, “Fluorescent sensing film for pH planar optode, preparation method and application” (NANJING UNIVERSITY, priority 2018, dated 2022)
# Test: Log D (octanol-water partition coefficient versus pH) by potentiometric titration with a Pulse instrument
# Conditions: FIG. 12
substance,measurement,setting,value
dimethylamine-HPTS [HPTS-dimethylamine],Log D curve (octanol-water partition coefficient with pH),pH of 9 or above,water solubility
same,Log D curve (octanol-water partition coefficient with pH),under acidic conditions,fat solubility
